From patent publication US20120122214A1

Sequences of proteins named here, by UniProt entry; tags and fusion partners are left off. Residues count along the entry.
UniProt P05067, 672-713 limits assumed: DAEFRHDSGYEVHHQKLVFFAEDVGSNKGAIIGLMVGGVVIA

Target: β-amyloid peptide (Amyloid β-Protein 1-42; Wako Chemicals) (human) (UniProt P05067)
Assay: flow cytometry; iPS-MP in suspension with β-amyloid-coated fluorescent particles, 37° C., 90 minutes

- mean fluorescence intensity: 1350
- percent of cells bound to the beads: 60.3%
Substance: single-chain antibody (scFv) recognizing human β-amyloid peptide, derived from mouse hybridoma clone 3D6, fused to mouse IgG2a Fc portion and mouse Fc receptor (FcγRI) trans-cell membrane-cytoplasm portion, expressed on iPS-MP
